These results are taken from patent US9598421B2, “Imidazopyridazine compounds” (Pfizer Inc., priority 2014, dated 2017).

Sequences of proteins named here, by UniProt entry; tags and fusion partners are left off. A line that says so, or that is headed by a name, gives the form on record, which may keep a tag or linker. Residues count along the entry.
UniProt Q08493, 2-712: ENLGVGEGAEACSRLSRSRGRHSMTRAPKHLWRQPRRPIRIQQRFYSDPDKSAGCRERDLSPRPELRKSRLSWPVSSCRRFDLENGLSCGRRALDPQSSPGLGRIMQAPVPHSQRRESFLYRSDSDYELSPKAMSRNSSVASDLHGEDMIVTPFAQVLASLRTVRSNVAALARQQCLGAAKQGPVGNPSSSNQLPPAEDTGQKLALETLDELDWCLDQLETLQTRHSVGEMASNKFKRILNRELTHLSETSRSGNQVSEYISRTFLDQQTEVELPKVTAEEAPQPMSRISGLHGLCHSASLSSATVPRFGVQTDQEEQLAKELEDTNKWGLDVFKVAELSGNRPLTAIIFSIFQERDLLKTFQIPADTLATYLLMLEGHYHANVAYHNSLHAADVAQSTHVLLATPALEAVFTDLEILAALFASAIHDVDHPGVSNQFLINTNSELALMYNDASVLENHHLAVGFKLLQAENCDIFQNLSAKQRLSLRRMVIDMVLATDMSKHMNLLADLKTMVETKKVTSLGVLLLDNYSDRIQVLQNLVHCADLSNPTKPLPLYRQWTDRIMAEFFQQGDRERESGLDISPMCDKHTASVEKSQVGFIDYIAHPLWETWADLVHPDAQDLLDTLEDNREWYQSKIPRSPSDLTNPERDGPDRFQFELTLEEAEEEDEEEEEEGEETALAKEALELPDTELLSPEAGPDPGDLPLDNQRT
UniProt Q08499, 186-808: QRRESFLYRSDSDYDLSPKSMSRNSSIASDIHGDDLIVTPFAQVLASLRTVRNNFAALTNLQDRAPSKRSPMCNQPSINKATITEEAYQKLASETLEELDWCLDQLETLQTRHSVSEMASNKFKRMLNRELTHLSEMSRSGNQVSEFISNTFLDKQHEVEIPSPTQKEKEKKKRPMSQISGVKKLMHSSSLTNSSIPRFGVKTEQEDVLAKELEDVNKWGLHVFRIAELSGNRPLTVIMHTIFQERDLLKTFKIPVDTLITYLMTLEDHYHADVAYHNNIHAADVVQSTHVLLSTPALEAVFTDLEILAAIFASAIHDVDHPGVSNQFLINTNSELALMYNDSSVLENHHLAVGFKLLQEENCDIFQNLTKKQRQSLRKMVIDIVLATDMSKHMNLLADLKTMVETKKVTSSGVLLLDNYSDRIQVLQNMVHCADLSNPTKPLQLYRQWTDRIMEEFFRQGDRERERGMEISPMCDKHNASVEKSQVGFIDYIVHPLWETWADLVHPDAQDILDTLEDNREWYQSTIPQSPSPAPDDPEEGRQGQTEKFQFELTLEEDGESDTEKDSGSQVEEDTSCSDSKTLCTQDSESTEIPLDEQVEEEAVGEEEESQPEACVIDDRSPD
UniProt P27815, other isoform, or with tags, fused parts or gaps: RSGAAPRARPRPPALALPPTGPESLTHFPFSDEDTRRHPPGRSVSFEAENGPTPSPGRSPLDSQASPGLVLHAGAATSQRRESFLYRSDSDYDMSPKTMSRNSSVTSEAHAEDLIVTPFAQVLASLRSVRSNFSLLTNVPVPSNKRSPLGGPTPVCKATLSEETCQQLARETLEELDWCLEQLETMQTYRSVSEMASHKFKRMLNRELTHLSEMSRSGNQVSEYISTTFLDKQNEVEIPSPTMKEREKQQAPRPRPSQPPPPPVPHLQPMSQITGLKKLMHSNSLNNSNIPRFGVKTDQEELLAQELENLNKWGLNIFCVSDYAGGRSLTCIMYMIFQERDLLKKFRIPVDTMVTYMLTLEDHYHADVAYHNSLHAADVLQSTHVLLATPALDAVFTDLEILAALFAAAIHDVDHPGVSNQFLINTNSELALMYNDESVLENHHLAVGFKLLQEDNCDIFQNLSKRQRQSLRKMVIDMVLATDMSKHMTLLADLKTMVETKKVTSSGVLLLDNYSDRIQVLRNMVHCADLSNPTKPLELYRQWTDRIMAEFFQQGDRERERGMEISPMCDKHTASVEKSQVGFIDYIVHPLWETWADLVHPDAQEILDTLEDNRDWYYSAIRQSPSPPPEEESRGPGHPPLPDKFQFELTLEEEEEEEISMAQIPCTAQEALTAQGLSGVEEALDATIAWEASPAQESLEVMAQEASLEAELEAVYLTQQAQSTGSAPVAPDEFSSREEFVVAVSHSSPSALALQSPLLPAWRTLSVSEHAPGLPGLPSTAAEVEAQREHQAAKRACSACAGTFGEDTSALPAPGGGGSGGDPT

Holding throughout (format): biochemical
One test deals with Human PDE4C (Homo sapiens (Human), UniProt Q08493). The experiment in a line: PDE4C Scintillation Proximity Assay (SPA), inhibition of enzyme activity. The note with it: human recombinant enzyme, 1 μM cAMP substrate, 30 min at 25° C., geometric mean of 2-9 determinations unless otherwise indicated, read-out: Human PDE4C FL.
The target in a further test is Human PDE4D (Homo sapiens (Human), UniProt Q08499). The experiment in a line: PDE4D Scintillation Proximity Assay (SPA), inhibition of enzyme activity. To be noted: human recombinant enzyme, 1 μM cAMP substrate, 30 min at 25° C., geometric mean of 2-9 determinations unless otherwise indicated, read-out: Human PDE4D FL. (SPA uses beads or plates that emit light when radiolabelled molecules are held near them.)

A further test addresses Human PDE4A (Homo sapiens (Human), UniProt P27815). The experiment in a line: PDE4A Scintillation Proximity Assay (SPA), inhibition of enzyme activity. To be noted: human recombinant enzyme, 1 μM cAMP substrate, 30 min at 25° C., geometric mean of 2-9 determinations unless otherwise indicated, read-out: Human PDE4A FL.

`O=C(c1nc2cccnn2c1-c1ccc2c(c1)OC(F)(F)O2)N1CCC1` [Example 86, azetidin-1-yl[3-(2,2-difluoro-1,3-benzodioxol-5-yl)imidazo[1,2-b]pyridazin-2-yl]methanone]: the IC50 at Human PDE4C came to 25 nM; on Human PDE4D it was 179 nM.

Consider `Cc1cc(C#N)c(F)cc1-c1c(C(=O)NC(C)C)nc2cccnn12` [Example 99, 3-(4-cyano-5-fluoro-2-methylphenyl)-N-(propan-2-yl)imidazo[1,2-b]pyridazine-2-carboxamide], for which the IC50 on Human PDE4D worked out at 1550 nM.

For the molecule `O=C(Nc1ccn[nH]1)c1nc2cccnn2c1-c1ccc(Cl)cc1` [Example 103, 3-(4-chlorophenyl)-N-(1H-pyrazol-5-yl)imidazo[1,2-b]pyridazine-2-carboxamide], the IC50 on Human PDE4D came out at 1550 nM.

As to `O=C(Nc1cn[nH]c1)c1nc2cccnn2c1-c1ccc(Cl)c(F)c1` [Example 82, 3-(4-chloro-3-fluorophenyl)-N-(1H-pyrazol-4-yl)imidazo[1,2-b]pyridazine-2-carboxamide], the IC50 on Human PDE4D was determined as 56.5 nM.

`CCCNC(=O)c1nc2cccnn2c1-c1cc(F)cc(Cl)c1` [Example 34, 3-(3-chloro-5-fluorophenyl)-N-propylimidazo[1,2-b]pyridazine-2-carboxamide]: the IC50 at Human PDE4C is 47 nM; at Human PDE4D it was 2110 nM.

For `COc1ccc(-c2c(C(=O)N3CCC3)nc3cccnn23)c(F)c1` [Example 73, azetidin-1-yl[3-(2-fluoro-4-methoxyphenyl)imidazo[1,2-b]pyridazin-2-yl]methanone], the IC50 at Human PDE4D is above 24700 nM.

In the case of `Cc1cc(C#N)c(F)cc1-c1c(C(=O)NC2CC2)nc2cccnn12` [Example 19, 3-(4-cyano-5-fluoro-2-methylphenyl)-N-cyclopropylimidazo[1,2-b]pyridazine-2-carboxamide], the IC50 at Human PDE4D was determined as 645 nM.

For the molecule `Cc1ccc(-c2c(C(=O)N3CCC3)nc3cccnn23)cc1Cl` [Example 49, azetidin-1-yl[3-(3-chloro-4-methylphenyl)imidazo[1,2-b]pyridazin-2-yl]methanone], the IC50 stood at 19 nM on Human PDE4C and 535 nM at Human PDE4D.

Take `Cc1cc(Cl)ccc1-c1c(C(=O)N2CCC2)nc2cccnn12` [Example 56, azetidin-1-yl[3-(4-chloro-2-methylphenyl)imidazo[1,2-b]pyridazin-2-yl]methanone]: the IC50 on Human PDE4D was found to be 3930 nM.

Take `O=C(c1nc2cccnn2c1-c1ccc(Cl)cc1)N1CCCC1` [Example 27, [3-(4-chlorophenyl)imidazo[1,2-b]pyridazin-2-yl](pyrrolidin-1-yl)methanone]: the IC50 worked out at 742 nM at Human PDE4A and 5620 nM at Human PDE4D.

Take `Cc1cc(-c2c(C(=O)NC3CC3)nc3cccnn23)c(F)cc1C#N` [Example 17, 3-(4-cyano-2-fluoro-5-methylphenyl)-N-cyclopropylimidazo[1,2-b]pyridazine-2-carboxamide]: at Human PDE4D, the IC50 was above 18200 nM.

With `O=C(NC1CC1)c1nc2cccnn2c1-c1ccc2ncnn2c1` [Example 6, N-Cyclopropyl-3-([1,2,4]triazolo[1,5-a]pyridin-6-yl)imidazo[1,2-b]pyridazine-2-carboxamide], the IC50 at Human PDE4D is 4890 nM.

As for `O=C(c1nc2cccnn2c1-c1cncc(Cl)c1)N1CCC1` [Example 15, azetidin-1-yl[3-(5-chloropyridin-3-yl)imidazo[1,2-b]pyridazin-2-yl]methanone], the IC50 at Human PDE4D is above 23700 nM.

For `O=C(c1nc2cccnn2c1-c1cc(F)c(Cl)cc1F)N1CCC1` [Example 91, azetidin-1-yl[3-(4-chloro-2,5-difluorophenyl)imidazo[1,2-b]pyridazin-2-yl]methanone], at Human PDE4D, the IC50 stood at 2250 nM.
